Compound activity from PubChem.
In the library only some 16% were active in any assay of this set; here they are far more common.
miR-21 FLuc: raises the signal of a miR-21 reporter | HeLa miR-21 FLuc reporter, luciferase, 48 h | 340,000 tested, under 10 active | Potency, µM (titrated, usually from 38.3 µM), inactives show at the highest dose reporter change, positive = more light; active = well fitted rising curve with a large enough effect; inconclusive = small, poorly fitted or top-dose-only effect; inactive = no such curve, though single readings can be large or run the other way;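 further: % of control where 0% means no effect; miR-21 action dims this reporter so a rising signal means less miR-21 action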
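Luminescence from a firefly luciferase reporter carrying a miR-21 binding site downstream, stably expressed under a CMV promoter in HeLa cells that make miR-21 endogenously, reports miRNA modulation after 48 h compound exposure up to approximately 40uM final.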
TDP1 block: inhibitors of human tyrosyl-DNA phosphodiesterase TDP1 | Potency, µM (doses to about 130 µM), without a hit: at the highest dose activity change, negative = inhibition, most hits filed as inhibitors | recombinant TDP1, AlphaScreen DNA substrate cleavage | Q9NUW8 | hit rate 0.28% among 350,000; also: potency is read from the fitted curve at half-maximal effect; % is scaled to controls: 0 for no effect and ±100 for the full control effect; nearly all actives have a fitted effect of over 40% in size
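Compounds were preincubated with Tdp1 (1 nM final) for 15 min at room temperature before substrate (15 nM final) started a 5 min reaction; beads (10 ug/ml final) were then added for 10 min before AlphaScreen detection.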
TDP1 cell noCPT: qHTS for Inhibitors of human tyrosyl-DNA phosphodiesterase 1 (TDP1): qHTS in cells in absence of CPT. DT40 Tdp1-/- hTDP1 cells, no CPT, ATP luminescence, 48 h. Potency, µM (highest dose often 46.2 µM), inactives show top-dose activity change, negative = growth inhibition, most hits filed as inhibitors. hit rate 15% among 420,000. AID 686978, 2013; also: potency is read from the fitted curve at half-maximal effect; % is scaled to controls: 0 for no effect and ±100 for the full control effect; nearly all actives have a fitted effect of over 55% in size
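Growth kinetics read by CellTiter-Glo luminescence after ≥48 hr at 37 °C. Cells: DT40 Tdp1-/- stably carrying human TDP1, 400 per well, compound exposure in the absence of CPT (DMSO vehicle).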
DT40 TDP1 CPT: growth inhibition of DT40 Tdp1-/-;hTDP1 cells with camptothecin (screen for TDP1 inhibitors); chicken DT40 Tdp1-/-;hTDP1 cells + 20 nM CPT, ATP luminescence, 48 h; Potency, µM (titrated, usually from 46.2 µM), for the others: at the top dose activity change, negative = growth inhibition, most hits filed as inhibitors; hit rate 12% among 420,000; AID 686979; also: potency is read from the fitted curve at half-maximal effect; % is scaled to controls: 0 for no effect and ±100 for the full control effect; nearly all actives have a fitted effect of over 55% in size
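Cell growth measured by CellTiter-Glo luminescence after a minimum 48 h, 37 C compound exposure with 20 nM CPT in Tdp1-knockout DT40 cells stably expressing hTDP1, seeded 400/well; qHTS titration format.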
uPA generation: cell surface uPA generation inhibition | Potency, µM (series often up to 38.3 µM), inactives show at the highest dose activity change, negative = inhibition, hits mostly inhibitors | cell surface uPA generation assay, qHTS | hit rate 0.31% among 330,000 | AID 540303; active = well fitted inhibition curve with a large enough effect; inconclusive = small, poorly fitted or top-dose-only effect; inactive = no such curve, though single readings can be large or run the other way; tested in mouse RAW 264.7 cells; also: potency is read from the fitted curve at half-maximal effect; % is scaled to controls: 0 for no effect and ±100 for the full control effect; nearly all actives have a fitted effect of over 55% in size
The depositor's hits bear a star; ? = inconclusive; . = not tested or not shown; ! = not active in a repeat; [ ] = dose if it differs, or a comment. Unless noted, calls follow the shape of the dose curve; as a rule, active = well fitted curve in the direction sought with a large enough effect; inconclusive = small, poorly fitted or top-dose-only effect, or another doubt; inactive = no such curve, though single readings can be large; an effect the other way counts as inactive or inconclusive.

item | SMILES | miR-21 FLuc | TDP1 block | TDP1 cell noCPT | DT40 TDP1 CPT | uPA generation
1 | Cc1cc2cc(CN(Cc3ccc4c(c3)OCO4)Cc3nnnn3C3CCCC3)c(=O)[nH]c2cc1C | -3% | 6% | 13µM* | 16µM* | 2%
2 | CC1CCc2[nH]c3ccc(C(=O)NCC4CCCO4)cc3c2C1 (configuration not stated) | . | 8% | ? | ? | -9%
3 | Cc1cc2cc(CN(Cc3nnnn3C3CCCCC3)CC3CCCO3)c(=O)[nH]c2cc1C (configuration not stated) | -10% | 4% | ? | ? | 11%
4 | Cc1ccc2cc(CN(Cc3nnnn3C3CCCCC3)CC3CCCO3)c(=O)[nH]c2c1 (configuration not stated) | -12% | 6% | 16µM* | 15µM* | 1%
5 | CC(C)CC(NC(=O)OCc1ccccc1)C(=O)NC(Cc1c[nH]c2ccccc12)C(=O)O (configuration not stated) | . | . | -11% | -11% | .
6 | CNC(=O)[C@H](Cc1c[nH]c2ccccc12)NC(=O)[C@@H](CC(=O)NO)CC(C)C | . | 10% | 31µM* | 22µM* | .
7 | CCn1c(CC(=O)Nc2ccc(F)cc2)nnc1SCC(=O)NC1=NCCS1 | 0% | . | ? | ? | 3%
8 | O=C(Nc1cccc(C(F)(F)F)c1)c1noc2c1CCc1ccccc1-2 | -26% | -2% | ? | 10µM* | .
9 | O=C(Nc1cccc(O)c1)c1noc2c1CCc1ccccc1-2 | 26% | 6% | ? | 16µM*! | ?
10 | CC(=O)c1ccc(NC(=O)c2noc3c2CCc2ccccc2-3)cc1 | -40% | 6% | -8% | ? | .
11 | Cc1ccc(NC(=O)c2noc3c2CCc2ccccc2-3)cc1 | -45% | 8% | -14% | -9% | 1%
12 | CCCN1CCN(CCNC(=O)Nc2ccc(OC)cc2OC)CC1 | 8% | -7% | -25% | -16% | .
13 | CCc1ccc(NC(=O)[C@H](C)NC(=O)C2CCN(C(=O)[C@@H](N)Cc3ccccc3)CC2)cc1 | -9% | . | 16µM* | ? | -4%
14 | COCc1c(C(=O)OCC(=O)N(C)C2CCS(=O)(=O)C2)oc2ccccc12 (configuration not stated) | . | -3%[56.1 µM] | 2% | -16% | 10%
15 | COc1ccc(-c2cc3ccccc3nc2N)cc1OC | 12% | . | 21µM* | 18µM* | -1%

Entries of single compounds from above. Values in the order: miR-21 FLuc, TDP1 block, TDP1 cell noCPT, DT40 TDP1 CPT, uPA generation
Cc1cc2cc(CN(Cc3nnnn3C3CCCCC3)CC3CCCO3)c(=O)[nH]c2cc1C (configuration not stated) across the screens: -10%, 4%, ?, ?, 11%
Cc1cc2cc(CN(Cc3ccc4c(c3)OCO4)Cc3nnnn3C3CCCC3)c(=O)[nH]c2cc1C across the screens: -3%, 6%, 13µM*, 16µM*, 2%

3 compounds out of the list, ordered by count of non-hydrogen atoms, falling.
item | SMILES | miR-21 FLuc | TDP1 block | TDP1 cell noCPT | DT40 TDP1 CPT | uPA generation
3 | Cc1cc2cc(CN(Cc3nnnn3C3CCCCC3)CC3CCCO3)c(=O)[nH]c2cc1C (configuration not stated) | -10% | 4% | ? | ? | 11%
6 | CNC(=O)[C@H](Cc1c[nH]c2ccccc12)NC(=O)[C@@H](CC(=O)NO)CC(C)C | . | 10% | 31µM* | 22µM* | .
8 | O=C(Nc1cccc(C(F)(F)F)c1)c1noc2c1CCc1ccccc1-2 | -26% | -2% | ? | 10µM* | .

Additional compounds follow.
item | SMILES | miR-21 FLuc | TDP1 block | TDP1 cell noCPT | DT40 TDP1 CPT | uPA generation
16 | O=C(Cn1cnc2c(nnn2Cc2ccccc2)c1=O)NCc1ccco1 | -2% | 4% | -1% | 4% | 2%
17 | Cn1c(C(=O)NCCCN2CCN(c3ccc(F)cc3)CC2)cc2c(=O)n(C)c3ccccc3c21 | . | . | ? | ? | -7%
18 | CCCN(CCC)CCNC(=O)c1cc2c(=O)n(C)c3ccccc3c2n1C | -1% | 4% | 18µM* | ? | -14%
19 | CCN1CCN(CCCNC(=O)c2cc3c(=O)n(C)c4ccccc4c3s2)CC1 | -12% | 2% | 10µM* | ? | .
20 | Cn1c(=O)c2cc(C(=O)NCCCN3CCN(c4ccccc4F)CC3)sc2c2ccccc21 | 5% | 0% | 3.7µM* | 3.7µM* | .
21 | Cn1c(=O)c2cc(C(=O)NCCCN3CCN(c4ccc(F)cc4)CC3)sc2c2ccccc21 | -5% | 2% | 2.9µM* | ? | .
22 | CCN1CCN(CCCNC(=O)c2cc3c(=O)[nH]c4ccccc4c3s2)CC1 | 0% | -2% | ? | ? | -3%
23 | CCn1cc(C(=O)NC(=S)Nc2ccccc2[N+](=O)[O-])cn1 | -30% | 4% | -1% | -9% | -8%
24 | CCC(=O)N1CC2(c3ccccc3)CN(C(=O)CC)CC(c3ccccc3)(C1)C2=O | 3% | -5% | 31% | -5% | -6%
25 | O=C(NCc1cccc(Cl)c1)C(=O)Nc1ccc2nc3n(c(=O)c2c1)CCCCC3 | 17% | 3% | -29% | -26% | .
26 | Cn1c(C(=O)NCCN2CCOCC2)cc2c(=O)n(C)c3ccccc3c21 | -2% | 3% | -16% | ? | -7%
27 | Cn1c(C(=O)NCCN2CCN(c3ccccc3F)CC2)cc2c(=O)n(C)c3ccccc3c21 | 1% | 1% | 23µM* | 18µM* | -16%
28 | COC(=O)C1=C(C)N(Cc2ccco2)C(=O)/C1=C\c1ccc([N+](=O)[O-])cc1 | -2% | 0% | ? | 16µM* | -6%
29 | COC(=O)C1=C(C)N(C)C(=O)/C1=C\c1ccco1 | 4% | 1% | -20% | 0% | -5%
30 | CCOc1cc(/C=C2\C(=O)N(Cc3ccc(C)cc3)C(C)=C2C(=O)OC)ccc1O | -6% | 11% | ? | ? | -11%
31 | COC(=O)C1=C(C)N(Cc2ccc(OC)cc2)C(=O)/C1=C\c1ccco1 | -1% | 6% | 16µM* | 26µM* | 0%
32 | C=CCOc1cccc(/C=C2\C(=O)N(Cc3ccc(C)cc3)C(C)=C2C(=O)OC)c1 | -4% | -1% | 23µM* | ? | -6%
33 | Cc1csc(SC(C)C(=O)Nc2ccc(F)cc2Cl)n1 (configuration not stated) | . | -3% | -6% | -1% | -1%
34 | Cn1nnc2c(N3CCCCC3)ncnc21 | -11% | -3% | ? | ? | .
35 | CC(C)(C)OC(=O)NCCc1nnc(SCc2ccccc2Cl)o1 | -14% | 5% | ? | -24% | 5%
36 | CC(C)(C)OC(=O)NCCc1nnc(S(=O)(=O)Cc2ccc(Cl)cc2Cl)o1 | ? | 2% | 2.6µM* | 1.6µM* | -12%
37 | CC1CCc2cc(F)cc3c2N1C(=O)C(C(=O)Nc1cnccn1)C3=O (configuration not stated) | . | 2% | 0.79µM* | 1µM* | .
38 | O=C(Nc1cnccn1)C1c2ccccc2Oc2ccccc21 | -2% | 2% | -1% | -7% | .
39 | CCOc1ccc(N2C(=O)/C(=C\c3ccc(OC)c(O)c3)S(=O)(=O)C2c2cccc([N+](=O)[O-])c2)cc1 (configuration not stated) | -4% | 1% | ? | -28% | .
40 | CCOc1ccc(N2C(=O)/C(=C\c3ccc(O)c(OC)c3)S(=O)(=O)C2c2cccc([N+](=O)[O-])c2)cc1 (configuration not stated) | 4% | 6% | ? | 18µM* | -10%
41 | COc1ccccc1N(CC(=O)NCCSc1ccccc1)S(=O)(=O)c1ccc(C)cc1 | 27% | . | 16µM* | ? | .
42 | COc1ccccc1N(CC(=O)NCCSc1ccccc1)S(C)(=O)=O | -2% | 2%[56.1 µM] | -12% | -10% | 0%
43 | COc1ccc(N(CC(=O)NCCSc2ccccc2)S(=O)(=O)c2ccccc2)c(OC)c1 | . | 1% | 13µM* | ? | -5%
44 | COc1ccc(CCNC(=O)CN(c2cc(OC)ccc2OC)S(=O)(=O)c2ccccc2)cc1 | 6% | . | ? | ? | 6%
